Measured values taken from PubChem BioAssay AID2563 (Broad Institute, 2010).
Only a part is listed here, and it is no random draw. The source made the active and inactive calls.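 The calls were made as follows: active = fall in fluorescence gain of 50% or more versus controls, with final raw signal at or below 3038400; inconclusive = same 50% fall but final raw signal above 3038400; inactive = fall in fluorescence gain under 50%.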

Chains of the proteins cited; added tags and fusions are not shown.
UniProt Q03530, whole entry: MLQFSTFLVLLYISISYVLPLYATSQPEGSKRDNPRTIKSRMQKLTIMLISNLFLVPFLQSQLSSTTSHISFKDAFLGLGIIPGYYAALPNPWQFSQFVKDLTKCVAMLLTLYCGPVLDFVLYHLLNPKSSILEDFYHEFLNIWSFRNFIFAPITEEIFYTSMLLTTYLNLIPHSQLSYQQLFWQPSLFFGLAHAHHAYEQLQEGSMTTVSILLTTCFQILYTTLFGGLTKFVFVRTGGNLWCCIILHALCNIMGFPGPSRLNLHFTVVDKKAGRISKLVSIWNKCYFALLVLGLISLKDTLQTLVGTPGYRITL

Target: CAAX prenyl protease 2 (Saccharomyces cerevisiae (strain ATCC 204508 / S288c)) (UniProt Q03530)
Assay: blockers of Rce1 CaaX peptide cleavage – biochemical, fluorescence, cell-free homogeneous, primary screen (AID 2563)
Conditions: yeast membranes, quenched prenylated peptide cleavage fluorescence

Q: With `O=[N+]([O-])c1ccc2c(c1)C=Nc1ccccc1O2` as the compound, how does the outcome read?
A: inactive

Q: For `Cc1cccc(C)c1OP(C)(N)=O` (stereo not given), which outcome is on record?
A: inactive

Q: For `Cc1ccc(OP(=O)(Nc2ccc([N+](=O)[O-])cn2)Oc2ccc(C)cc2)cc1`, which outcome is on record?
A: inactive

Q: Which outcome does the source give for `CC(C)(C)c1ccc(OP(C)(=O)Nc2ccc(SC(F)(F)F)cc2)cc1` (stereo not given) here?
A: inactive

Q: For `C[As](=O)(O)c1cccc(C(=O)O)c1`, which outcome is on record?
A: inactive

Q: For `O=[As](O)(c1ccc(O)cc1)c1ccccc1O`, which outcome is on record?
A: inactive

Q: For `O=[N+]([O-])c1cc([N+](=O)[O-])c(Nc2cccnc2)c([N+](=O)[O-])c1`, which outcome is on record?
A: inactive

Q: How did the outcome turn out when `Cc1cc(C)cc(OP(C)(N)=O)c1` (stereo not given) was run?
A: inactive

Q: How did the outcome turn out when `COc1ccc(OP(C)(=O)Nc2cccc(F)c2)cc1` (stereo not given) was run?
A: inactive

Q: `O=[N+]([O-])c1cc([N+](=O)[O-])c(-c2ccn[nH]2)s1` was tested. Which outcome did it give?
A: inactive

Q: Which outcome does the source give for `CC(C)NC(=O)NP(=O)(Oc1ccccc1)Oc1ccccc1` here?
A: inactive

Q: With `COc1ccccc1OP(C)(=O)Nc1cc(Cl)ccc1C` (stereo not given) as the compound, how does the outcome read?
A: inactive

Q: With `CCN(CC)C(=S)SC(NC=O)C(Cl)(Cl)Cl` (stereo not given) as the compound, how does the outcome read?
A: inactive

Q: How did the outcome turn out when `CC(C)c1ccc(OP(=O)(Nc2ccccn2)Oc2ccccc2F)cc1` (stereo not given) was run?
A: inactive

Q: Which outcome does the source give for `COc1ccccc1OP(C)(=O)Nc1ccc(C)cc1` (stereo not given) here?
A: inactive

Q: `ClCCSc1nnc(-c2cccnc2)o1` was tested. Which outcome did it give?
A: inactive

Q: `CCOC(=O)c1ccc(NP(C)(=O)Oc2ccccc2)cc1` (stereo not given) was tested. Which outcome did it give?
A: inactive

Q: How did the outcome turn out when `COc1cc(I)ccc1[As](=O)(O)O` was run?
A: inactive

Q: How did the outcome turn out when `COc1ccc2nc(NP(=O)(c3ccccc3)c3ccccc3)sc2c1` was run?
A: inactive

Q: For `Cc1cc(=O)[nH]c(N[N+](=O)[O-])n1`, which outcome is on record?
A: inactive

Q: For `CCN(CC)CCCOC(=O)C(O)(c1ccccc1)c1ccccc1`, which outcome is on record?
A: inactive

Q: With `O=C(OC1CN2CCC1CC2)C12CC3CC(CC(C3)C1)C2` (stereo not given) as the compound, how does the outcome read?
A: inactive

Q: `Cc1c2c(nc3ccccc13)SC(C(Cl)Cl)C2` (stereo not given) was tested. Which outcome did it give?
A: inactive

Q: How did the outcome turn out when `COc1ccc(N/C(=N/P(=O)(N2CCOCC2)N2CCOCC2)N2CCOCC2)cc1` was run?
A: inactive

Q: Which outcome does the source give for `O=C(Nc1ccncc1[N+](=O)[O-])c1ccc([N+](=O)[O-])cc1[N+](=O)[O-]` here?
A: inactive

Q: `Cc1cc(C)cc(OP(C)(=O)Nc2ccc(SC(F)(F)F)cc2)c1` (stereo not given) was tested. Which outcome did it give?
A: inactive

Q: With `CP(=O)(NC(=O)Nc1ccccc1)Oc1ccccc1` (stereo not given) as the compound, how does the outcome read?
A: inactive

Q: How did the outcome turn out when `O=C(COc1ccccc1)OC1CN2CCC1CC2` (stereo not given) was run?
A: inactive

Q: For `CCc1ccc(OP(C)(=O)N2CCN(c3ccc([N+](=O)[O-])cc3)CC2)cc1` (stereo not given), which outcome is on record?
A: inactive

Q: Which outcome does the source give for `CP(=O)(Oc1ccccc1)OC(c1ccccc1)C(F)(F)F` (stereo not given) here?
A: inactive

Q: For `COP1(=S)c2c(C)nn(CCC#N)c2N=C(c2ccc(F)cc2)N1C` (stereo not given), which outcome is on record?
A: inactive

Q: With `Cc1cccc(C)c1OP(C)(=O)Nc1ccc(SC(F)(F)F)cc1` (stereo not given) as the compound, how does the outcome read?
A: inactive

Q: Which outcome does the source give for `CP(=O)(Nc1ccccn1)Oc1ccc(Cl)cc1` (stereo not given) here?
A: inactive

Q: Which outcome does the source give for `CCC(C)N(CC(C)C)C(=S)SC(NC(C)=O)C(Cl)(Cl)Cl` (stereo not given) here?
A: inactive

Q: `O=[N+]([O-])c1cc([N+](=O)[O-])c(O)c([N+](=O)[O-])c1.c1ccc(Oc2ccncc2)cc1` was tested. Which outcome did it give?
A: inactive

Q: For `CCOC(=O)c1ccc(NC(=O)C(C)(CCl)SC)cc1` (stereo not given), which outcome is on record?
A: inactive

Q: With `CCOC(=O)c1ccc(NP(C)(=O)Oc2ccc(OC)cc2)cc1` (stereo not given) as the compound, how does the outcome read?
A: inactive

Q: With `O=C(OC1CN2CCC1CC2)c1cccc([N+](=O)[O-])c1` (stereo not given) as the compound, how does the outcome read?
A: inactive

Q: How did the outcome turn out when `CCOP(C)(=S)SCC(=O)NC(C)C(=O)O` (stereo not given) was run?
A: inactive

Q: For `Cc1cc(SC(NC(=O)c2ccccc2)C(Cl)(Cl)Cl)nc(C(C)C)n1` (stereo not given), which outcome is on record?
A: inactive

Q: For `CCCCOc1ccc(C(=O)NCC2(N3CCCCC3)CCCCC2)cc1OC`, which outcome is on record?
A: inactive

Q: How did the outcome turn out when `CCOC(=O)Nc1ccc([As](=O)(O)O)c(O)c1` was run?
A: inactive

Q: For `O=[N+]([O-])c1ccc(Nc2ccc(Oc3ccc([N+](=O)[O-])cc3[N+](=O)[O-])cc2)c([N+](=O)[O-])c1`, which outcome is on record?
A: inactive

Q: For `CP(=O)(Nc1ccccc1Br)Oc1ccccc1` (stereo not given), which outcome is on record?
A: inactive

Q: `COc1ccccc1OP(C)(=O)Nc1ccccc1` (stereo not given) was tested. Which outcome did it give?
A: inactive

Q: Which outcome does the source give for `Cc1cc(SC(NC=O)C(Cl)(Cl)Cl)ncn1` (stereo not given) here?
A: inactive

Q: Which outcome does the source give for `O=P(Nc1ccccn1)(c1cccc2ccccc12)c1cccc2ccccc12` here?
A: inactive

Q: With `CCOC(=O)Nc1cccc([As](=O)(O)O)c1` as the compound, how does the outcome read?
A: inactive

Q: For `CP(=S)(Nn1cnnc1)Oc1ccccc1` (stereo not given), which outcome is on record?
A: inactive

Q: How did the outcome turn out when `O=C(/C=C/c1ccccc1)OC1CN2CCC1CC2` (stereo not given) was run?
A: inactive

Q: With `CCOC(=O)C(CC)C1=NC(C)(C)Cc2ccccc21.O=[N+]([O-])c1cc([N+](=O)[O-])c(O)c([N+](=O)[O-])c1` (stereo not given) as the compound, how does the outcome read?
A: inactive

Q: `CN(C)C1(CNC(=O)c2ccc(S(C)(=O)=O)cc2)CCCCC1` was tested. Which outcome did it give?
A: inactive

Q: How did the outcome turn out when `O=[N+]([O-])c1cc([N+](=O)[O-])c(Nc2nnnn2CCO)c([N+](=O)[O-])c1` was run?
A: inactive

Q: Which outcome does the source give for `COc1cc(C2NCCC3(OCCO3)C2(C)C)cc(OC)c1OC.O=[N+]([O-])c1cc([N+](=O)[O-])c(O)c([N+](=O)[O-])c1` (stereo not given) here?
A: inactive

Q: How did the outcome turn out when `Cc1ccc(C(=O)OC2CN3CCC2CC3)cc1` (stereo not given) was run?
A: inactive

Q: With `CC1CCC(C(C)C)C(OP(=O)(Nc2ccccn2)c2ccccc2)C1` (stereo not given) as the compound, how does the outcome read?
A: inactive

Q: With `Cc1nn(-c2ccccc2)c2c1P(=O)(N1CCOCC1)N(C)C(c1ccccc1)=N2` (stereo not given) as the compound, how does the outcome read?
A: inactive

Q: `Cc1ccc(OCC(=O)OC2CN3CCC2CC3)cc1` (stereo not given) was tested. Which outcome did it give?
A: inactive

Q: Which outcome does the source give for `O=[As](O)(c1cccs1)c1cccs1` here?
A: inactive

Q: With `O=P1(Nc2ccc(Br)cn2)COc2ccccc2OC1` as the compound, how does the outcome read?
A: inactive

Q: Which outcome does the source give for `CCCOc1ccc(NP(C)(=O)Oc2ccc(Cl)cc2)cc1` (stereo not given) here?
A: inactive

Q: Which outcome does the source give for `CP(=O)(Nc1ccc(SC(F)(F)F)cc1)Oc1ccccc1` (stereo not given) here?
A: inactive

Q: With `Nc1cccc([As](=O)(O)c2ccccc2)c1` as the compound, how does the outcome read?
A: inactive

Q: `CN1CCCCC1COC(=O)C1(O)c2ccccc2CCc2ccccc21` (stereo not given) was tested. Which outcome did it give?
A: inactive

Q: How did the outcome turn out when `COc1ccccc1OP(C)(=O)Nc1c(C)cccc1C` (stereo not given) was run?
A: inactive

Q: `O=P1(Nc2ncccn2)COc2ccccc2OC1` was tested. Which outcome did it give?
A: inactive

Q: How did the outcome turn out when `CC(C)(C)C(=O)NC(Sc1ncccn1)C(Cl)(Cl)Cl` (stereo not given) was run?
A: inactive

Q: `Clc1n[nH]nc1-c1nn[nH][15n]1` was tested. Which outcome did it give?
A: inactive

Q: Which outcome does the source give for `CCOP(=O)(Nc1ccc(C)cn1)OCC` here?
A: inactive

Q: With `CN(CCCl)Cc1cc(Cl)c(NC2=NCCN2)c(Cl)c1` as the compound, how does the outcome read?
A: inactive

Q: With `CCOP(=O)(NC(=NC(C)c1ccccc1)NC(C)c1ccccc1)OCC` (stereo not given) as the compound, how does the outcome read?
A: inactive

Q: Which outcome does the source give for `CCC1=CC2Cc3nc4ccc(Cl)cc4c(N)c3C(C1)C2` (stereo not given) here?
A: inactive

Q: Which outcome does the source give for `O=P1(Nc2ccccn2)COc2ccccc2OC1` here?
A: inactive

Q: With `CC1(CBr)Cn2c(nc3ccccc3c2=O)S1` (stereo not given) as the compound, how does the outcome read?
A: inactive

Q: With `O=[As](O)(c1ccccc1Br)c1ccccc1Br` as the compound, how does the outcome read?
A: inactive
